Measurements from patent publication US20250381254A1, “Augmented Acid Alpha-Glucosidase For The Treatment Of Pompe Disease” (Amicus Therapeutics, Inc., priority 2015, published 2025).
pKd: −log10 of the molar value.

The chains behind the UniProt entries cited, without tags or fusion partners. Residues count along the entry.
UniProt P11717, 41-2491, species assumed: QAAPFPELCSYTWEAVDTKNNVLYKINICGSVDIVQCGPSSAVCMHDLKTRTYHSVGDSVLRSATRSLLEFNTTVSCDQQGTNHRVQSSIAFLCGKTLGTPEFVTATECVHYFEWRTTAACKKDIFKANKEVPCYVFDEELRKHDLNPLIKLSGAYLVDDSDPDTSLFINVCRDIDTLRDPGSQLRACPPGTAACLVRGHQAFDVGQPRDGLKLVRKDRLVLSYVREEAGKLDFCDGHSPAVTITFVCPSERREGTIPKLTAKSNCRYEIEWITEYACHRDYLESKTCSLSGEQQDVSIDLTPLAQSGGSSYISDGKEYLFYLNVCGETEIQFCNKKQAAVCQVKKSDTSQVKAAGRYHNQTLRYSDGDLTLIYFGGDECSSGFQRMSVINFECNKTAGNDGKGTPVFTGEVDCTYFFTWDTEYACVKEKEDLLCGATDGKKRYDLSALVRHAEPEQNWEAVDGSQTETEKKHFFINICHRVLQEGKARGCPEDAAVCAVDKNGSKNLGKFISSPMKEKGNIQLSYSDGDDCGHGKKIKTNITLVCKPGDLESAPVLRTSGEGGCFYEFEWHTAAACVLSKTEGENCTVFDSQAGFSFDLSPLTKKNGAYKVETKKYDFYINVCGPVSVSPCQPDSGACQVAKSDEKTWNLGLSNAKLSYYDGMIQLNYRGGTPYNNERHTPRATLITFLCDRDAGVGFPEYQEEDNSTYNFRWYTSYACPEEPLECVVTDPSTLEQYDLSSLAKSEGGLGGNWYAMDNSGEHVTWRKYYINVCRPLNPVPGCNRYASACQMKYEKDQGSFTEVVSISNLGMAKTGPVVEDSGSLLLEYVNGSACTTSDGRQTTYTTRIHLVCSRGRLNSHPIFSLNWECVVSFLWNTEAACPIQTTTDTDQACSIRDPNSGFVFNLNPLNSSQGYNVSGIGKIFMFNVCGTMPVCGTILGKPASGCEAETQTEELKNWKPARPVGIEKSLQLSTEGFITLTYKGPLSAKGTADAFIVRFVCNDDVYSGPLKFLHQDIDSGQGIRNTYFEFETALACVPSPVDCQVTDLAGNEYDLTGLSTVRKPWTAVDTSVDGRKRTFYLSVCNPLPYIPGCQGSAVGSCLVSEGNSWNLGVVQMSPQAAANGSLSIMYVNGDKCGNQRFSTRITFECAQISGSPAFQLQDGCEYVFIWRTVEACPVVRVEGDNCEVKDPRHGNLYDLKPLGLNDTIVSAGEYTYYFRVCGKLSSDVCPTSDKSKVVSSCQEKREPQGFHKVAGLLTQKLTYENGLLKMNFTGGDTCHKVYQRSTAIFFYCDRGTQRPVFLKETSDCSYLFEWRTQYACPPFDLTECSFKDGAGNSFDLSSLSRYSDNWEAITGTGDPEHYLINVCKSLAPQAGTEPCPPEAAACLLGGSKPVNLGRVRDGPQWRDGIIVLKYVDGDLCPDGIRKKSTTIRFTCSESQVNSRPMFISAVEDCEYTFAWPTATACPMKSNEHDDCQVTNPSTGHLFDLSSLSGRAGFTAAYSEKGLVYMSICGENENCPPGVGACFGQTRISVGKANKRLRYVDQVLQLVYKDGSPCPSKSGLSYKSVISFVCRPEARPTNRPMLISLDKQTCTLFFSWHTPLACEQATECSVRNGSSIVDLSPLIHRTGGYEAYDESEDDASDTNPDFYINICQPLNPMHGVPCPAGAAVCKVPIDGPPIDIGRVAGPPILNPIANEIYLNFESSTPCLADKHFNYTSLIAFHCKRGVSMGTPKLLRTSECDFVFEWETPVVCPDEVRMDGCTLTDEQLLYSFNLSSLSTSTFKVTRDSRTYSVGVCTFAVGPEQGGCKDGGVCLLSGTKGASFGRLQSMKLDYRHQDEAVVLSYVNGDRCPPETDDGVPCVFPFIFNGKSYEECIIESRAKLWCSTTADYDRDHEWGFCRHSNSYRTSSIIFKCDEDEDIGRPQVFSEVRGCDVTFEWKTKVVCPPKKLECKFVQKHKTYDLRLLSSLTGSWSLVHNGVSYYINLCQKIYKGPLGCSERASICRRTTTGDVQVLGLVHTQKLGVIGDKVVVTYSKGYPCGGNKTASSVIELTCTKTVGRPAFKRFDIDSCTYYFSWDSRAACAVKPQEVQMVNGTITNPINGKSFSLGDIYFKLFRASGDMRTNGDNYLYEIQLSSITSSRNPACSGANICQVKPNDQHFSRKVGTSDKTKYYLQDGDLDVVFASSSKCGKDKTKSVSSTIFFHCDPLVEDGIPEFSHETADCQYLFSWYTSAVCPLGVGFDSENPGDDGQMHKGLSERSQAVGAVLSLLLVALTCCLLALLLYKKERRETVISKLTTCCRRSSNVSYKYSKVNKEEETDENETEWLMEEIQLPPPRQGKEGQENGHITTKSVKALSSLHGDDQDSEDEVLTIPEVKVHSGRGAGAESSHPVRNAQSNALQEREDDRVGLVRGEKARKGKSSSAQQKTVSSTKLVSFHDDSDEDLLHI

Molecular target: CIMPR (Homo sapiens, UniProt P11717)
Experiment: CIMPR plate binding assay
Settings: ATB200 batches
Description: In addition to having a greater percentage of rhGAA that can bind to the CIMPR, it is important to understand the quality of that interaction. Lumizyme® and ATB200 rhGAA receptor binding was determined using a CIMPR plate binding assay. Briefly, CIMPR-coated plates were used to capture GAA. Varying concentrations of rhGAA were applied to the immobilized receptor and unbound rhGAA was washed off. The amount of remaining rhGAA was determined by GAA activity.

pKd | Substance
8.54 | Batch B: batch of ATB200 with sialic acid 5.4 mol/mol protein and M6P content 2.9 mol/mol protein
8.57 | Batch A: batch of ATB200 with sialic acid 4.0 mol/mol protein and M6P content 3.3 mol/mol protein
